Molecular target: soluble guanylate cyclase (human GUCYA3 and GUCYB3) overexpressed in CHO cells (Homo sapiens (Human), UniProt Q02153)
Assay: CHO cellular assay (cGMP production, Cisbio cGMP HTRF kit)
Type: cell-based
Settings: CHO GUCY clone 8E10, cGMP production, assay buffer with 1 mM IBMX and 20 uM ODQ, 1 h room temperature; minimum quantification limit 0.5 nM (listed 0.5 nM means ≤0.5 nM)

Chains of the proteins cited; added tags and fusions are not shown.
UniProt Q02153, whole entry: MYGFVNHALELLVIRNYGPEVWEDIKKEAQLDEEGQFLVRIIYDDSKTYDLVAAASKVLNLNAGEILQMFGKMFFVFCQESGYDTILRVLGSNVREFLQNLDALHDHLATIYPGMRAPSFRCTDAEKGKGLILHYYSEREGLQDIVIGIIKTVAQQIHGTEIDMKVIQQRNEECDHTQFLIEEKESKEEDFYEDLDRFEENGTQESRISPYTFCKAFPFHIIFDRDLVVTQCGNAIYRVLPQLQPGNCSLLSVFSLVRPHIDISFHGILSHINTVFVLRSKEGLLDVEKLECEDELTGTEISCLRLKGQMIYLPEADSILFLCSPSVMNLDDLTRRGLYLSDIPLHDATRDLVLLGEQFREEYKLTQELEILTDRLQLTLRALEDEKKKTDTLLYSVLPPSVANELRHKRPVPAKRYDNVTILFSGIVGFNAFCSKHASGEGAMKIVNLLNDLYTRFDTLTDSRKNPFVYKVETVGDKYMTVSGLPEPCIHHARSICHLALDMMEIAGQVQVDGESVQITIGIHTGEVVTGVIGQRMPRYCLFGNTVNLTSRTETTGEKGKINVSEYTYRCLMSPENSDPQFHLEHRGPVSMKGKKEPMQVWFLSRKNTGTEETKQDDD
UniProt Q02108, whole entry partner: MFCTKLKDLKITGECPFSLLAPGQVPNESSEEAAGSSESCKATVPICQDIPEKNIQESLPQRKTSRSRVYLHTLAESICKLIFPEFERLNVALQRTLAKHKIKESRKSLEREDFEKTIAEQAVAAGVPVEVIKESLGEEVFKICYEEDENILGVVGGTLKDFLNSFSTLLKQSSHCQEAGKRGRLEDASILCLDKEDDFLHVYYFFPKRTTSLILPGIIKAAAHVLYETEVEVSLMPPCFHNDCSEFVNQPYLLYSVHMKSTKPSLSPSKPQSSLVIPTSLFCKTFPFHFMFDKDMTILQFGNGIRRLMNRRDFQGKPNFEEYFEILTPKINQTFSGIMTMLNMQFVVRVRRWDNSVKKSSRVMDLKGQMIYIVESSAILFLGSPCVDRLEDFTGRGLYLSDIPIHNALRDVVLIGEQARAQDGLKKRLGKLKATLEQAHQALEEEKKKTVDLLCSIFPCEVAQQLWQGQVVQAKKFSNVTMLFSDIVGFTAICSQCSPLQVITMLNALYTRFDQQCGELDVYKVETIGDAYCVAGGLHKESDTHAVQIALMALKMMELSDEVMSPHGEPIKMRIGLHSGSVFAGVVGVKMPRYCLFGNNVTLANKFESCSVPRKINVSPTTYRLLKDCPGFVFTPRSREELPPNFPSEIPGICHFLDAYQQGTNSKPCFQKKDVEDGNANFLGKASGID

`CCc1cc(O[C@H]2CCc3cccc(-c4cccc(-n5ncc(C(=O)O)c5C)n4)c32)ccc1C1CCN(C(=O)C2CC2)CC1` was tested, and the EC50 was at most 0.5 nM.
